Source: patent publication US6872827B2, “Somatostatin analogue compounds” (Chembridge Research Laboratories, Inc., priority 2002, dated 2005)
pIC50, pKi: −log10 of the molar value.

Chains of the proteins cited; added tags and fusions are not shown. Lines headed by an entry give the natural chain unless they say otherwise; changes in a name come on top.
UniProt P32745: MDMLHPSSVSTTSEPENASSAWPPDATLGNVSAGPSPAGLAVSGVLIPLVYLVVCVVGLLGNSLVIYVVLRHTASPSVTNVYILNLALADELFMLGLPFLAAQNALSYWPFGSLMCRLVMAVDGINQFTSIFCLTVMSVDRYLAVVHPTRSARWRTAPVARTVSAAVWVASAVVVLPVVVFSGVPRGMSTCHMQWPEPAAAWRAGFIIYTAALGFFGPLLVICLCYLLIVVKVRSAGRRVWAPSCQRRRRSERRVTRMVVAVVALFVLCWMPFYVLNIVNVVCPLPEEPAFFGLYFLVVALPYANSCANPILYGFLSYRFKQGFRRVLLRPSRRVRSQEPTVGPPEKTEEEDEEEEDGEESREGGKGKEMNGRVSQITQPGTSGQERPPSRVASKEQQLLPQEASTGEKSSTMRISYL
UniProt P31391: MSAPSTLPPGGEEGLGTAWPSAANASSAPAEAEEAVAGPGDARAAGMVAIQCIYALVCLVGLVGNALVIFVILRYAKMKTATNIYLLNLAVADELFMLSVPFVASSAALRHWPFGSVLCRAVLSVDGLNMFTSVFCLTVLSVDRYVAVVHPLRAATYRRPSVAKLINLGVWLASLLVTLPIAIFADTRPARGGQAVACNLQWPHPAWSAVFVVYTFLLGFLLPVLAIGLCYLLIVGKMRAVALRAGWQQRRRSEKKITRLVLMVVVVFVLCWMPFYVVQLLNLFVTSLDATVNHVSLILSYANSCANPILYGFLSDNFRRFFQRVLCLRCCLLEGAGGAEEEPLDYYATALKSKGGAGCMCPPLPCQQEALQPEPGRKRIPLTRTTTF
UniProt P30872: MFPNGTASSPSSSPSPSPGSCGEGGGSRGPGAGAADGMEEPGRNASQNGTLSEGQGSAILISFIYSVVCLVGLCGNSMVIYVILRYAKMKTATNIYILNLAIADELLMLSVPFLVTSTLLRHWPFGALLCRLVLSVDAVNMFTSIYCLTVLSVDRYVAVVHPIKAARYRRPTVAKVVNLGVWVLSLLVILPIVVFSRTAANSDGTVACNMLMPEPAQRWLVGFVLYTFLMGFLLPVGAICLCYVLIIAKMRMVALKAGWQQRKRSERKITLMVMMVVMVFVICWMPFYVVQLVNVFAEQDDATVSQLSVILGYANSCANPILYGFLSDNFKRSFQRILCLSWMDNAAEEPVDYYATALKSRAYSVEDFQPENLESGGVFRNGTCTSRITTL

What was measured:
Settings in all cases: Table 4
Somatostatin sst 3 = target: T1, Somatostatin sst 3 (Homo sapiens, UniProt P32745); assay: Somatostatin sst3 radioligand binding assay
T1 construct: host or cells: CHO-K1
Method: (§1) Compounds of the present invention were assessed for their binding affinity to sst1, sst3, and sst4 receptors by biochemical and radioligand assay according to the following procedures. The assays were conducted by MDS Pharma Services—Taiwan Ltd., Pharmacology Laboratories, 158 Li-The Road, Peitou, Taipei, Taiwan 112, R.O.C.
The protocol for sst3 assay was adapted from Liapakis, G., Fitzpatrick, D., Hoeger, C., Rivier, J., Vandlen, R. and Reisine, T. (1996) “Identification of ligand binding determinants in the somatostatin receptor subtypes 1 and 2.”J. Biol. Chem. 271(24): 20331-20339, 1996; and Patel, Y. C. and Srikant, C. B. (1994) “Subtype selectivity of peptide analogs for all five cloned human somatostatin receptors (hsstr 1-5).” Endocrinology 135 (6): 2814-2817, 1994. The protocol were and can be conducted according to the following conditions.
(§2) IC50 values were determined by a non-linear, least squares regression analysis using Data Analysis Toolbox™ (MDL Information Systems, San Leandro, Calif., USA). Where inhibition constants (Ki) are presented, the Ki values were calculated using the equation of Cheng and Prusoff (Cheng, Y., Prusoff, W. H., Biochem. Pharmacol. 22:3099-3108, 1973) using the observed IC50 of the tested compound, the concentration of the radioligand employed in the assay, and the historical values for the Kd of the ligand (obtained experimentally at MDS Pharma Services). Where presented, the Hill coefficient (nH), defining the slope of the competitive binding curve, was calculated using Data Analysis Toolbox™. […] Where IC50, Ki and/or nH data are presented without Standard Error of the Mean (SEM), data are insufficient to be quantitative, and the values presented (Ki, IC50, nH) should be interpreted accordingly.

Somatostatin sst4 = target: T2, Somatostatin sst4 (Homo sapiens, UniProt P31391); assay: Somatostatin sst4 radioligand binding assay
T2 construct: host or cells: CHO-K1
Method: as §1
The protocol for sst4 assay was adapted from Patel, Y. C. and Srikant, C. B. (1994) “Subtype selectivity of peptide analogs for all five cloned human somatostatin receptors (hsstr 1-5).” Endocrinology 135 (6): 2814-2817, 1994. The protocol were and can be conducted according to the following conditions.
as §2

Somatostatin sst1 = target: T3, Somatostatin sst1 (Homo sapiens, UniProt P30872); assay: Somatostatin sst1 radioligand binding assay
T3 construct: host or cells: CHO-K1
Method: as §1
The protocol for sstl assay was adapted from Liapakis, G., Fitzpatrick, D., Hoeger, C., Rivier, J., Vandlen, R. and Reisine, T. (1996) “Identification of ligand binding determinants in the somatostatin receptor subtypes 1 and 2.”J. Biol. Chem. 271(24): 20331-20339, 1996; and Patel, Y. C. and Srikant, C. B. (1994) “Subtype selectivity of peptide analogs for all five cloned human somatostatin receptors (hsstr 1-5).” Endocrinology 135 (6): 2814-2817, 1994. The protocol were and can be conducted according to the following conditions.
as §2

Substance	pIC50 (Somatostatin sst 3)	pKi (Somatostatin sst 3)	pIC50 (Somatostatin sst4)	pKi (Somatostatin sst4)	pIC50 (Somatostatin sst1)	pKi (Somatostatin sst1)
7-(4-methoxy-phenoxy)-3,4-dihydro-2H-quinoline-1-(4-aminobutyl-1-yl-)-4-spiro-5′-1′-methy-3′-[2-(1H-indol-3-yl-ethyl]-imidazoline-2′4′-dione [G]	5.18	5.23	5.41	5.47	5.39	5.41
7-Phenoxy-3′-4′-dihydro-2H-quinoline 1-(methylpiperidine-4-yl)-4-spiro-5′-1′-(1H-indole-3yl-methyl)-3′-methyl-imidazoline-2′-4′-dione	5.82	5.87	5.80	5.85	5.73	5.75
